# According to patent US6642040B2, “Human cGMP-stimulated cyclic nucleotide phosphodiesterase” (The Board of Regents of the University of Washington, priority 1991, dated 2003):
# Tested on: cAMP hydrolysis
# Test: CaM-PDE activity of extracts of COS-7 cells transfected with 59 kDa CaM-PDE cDNA
# Type: biochemical, bovine
# Settings: COS-7 cell extracts, 2 μM cAMP
# Experimental: COS cells were scraped from the plates and homogenized in a buffer containing 40 mM Tris-HCl (pH=7.5), 5 mM EDTA, 15 mM benzamidine, 15 mM beta-mercaptoethanol, 1 μg per ml pepstatin A and 1 μg per ml peupeptin using a Dounce homogenizer (1 ml per 100 mm plate). Homogenates were assayed for PDE activity according to the procedures of Hanson et al., Proc. Nat'l. Acad. Sci. U.S.A., 79:2788-2792 (1982), using [^3H]cGMP as the substrate. Reactions were carried out at 300 for 10 minutes in a buffer containing 20 mM Tris-HCl (pH=7.5), 20 mM imidazole (pH=7.5), 3 mM MgCl2, 15 mM Mg acetate, 0.2 mg per ml BSA and 1 μM ^3H-cAMP with either 2 mM EGTA or 0.2 mM CaCl2 and 4 μg per ml CaM. Assays were stopped by incubating the tubes in a 900 water bath for 1 minute. After cooling, 10 μl of 2.5 mg per ml snake venom was added to each assay and incubated at 370 for 5 minutes. The samples were diluted with 250 μl of 20 mM Tris-HCl (pH=7.5) and immediately applied to 0.7 ml A-25 ion exchange columns. The columns were washed three times with 0.5 ml of 20 mM Tris-HCl (pH=7.5) and the eluate was collected in scintillation vials. Samples were counted for 1 minute using a Packard Model 1600TR scintillation counter. Specific cyclic nucleotide hydrolytic activity was expressed as picomoles cAMP or cGMP hydrolyzed per minute per mg protein. […]
molecule,measurement,value
p5′9KCAMPDE-2: expression product of cDNA encoding bovine lung 59 kDa CaM-PDE (SEQ ID NO: 17) (protein) MDDHVTIRRKHLQRPIFRLRCLVKQLEKGDVNVIDLKKNIEYAASVLEAVYIDETRRLLDTDDELSDIQSDSVPSEVRDWLASTFTRKMGMMKKKSEEKPRFRSIVHVVQAGIFVERMYRKSYHMVGLAYPEAVIVTLKDVDKWSFDVFALNEASGEHSLKFMIYELFTRYDLINRFKIPVSCLIAFAEALEVGYSKYKNPYHNLIHAADVTQTVHYIMLHTGIMHWLTELEILAMVFAAAIHDYEHTGTTNNFHIQTRSDVAILYNDRSVLENHHVSAAYRLMQEEEMNVLINLSKDDWRDLRNLVIEMVLSTDMSGHFQQIKNIRNSLQQPEGLDKAKTMSLILHAADISHPAKSWKLHHRWTMALMEEFFLQGDKEAELGLPFSPLCDRKSTMVAQSQIGFIDFIVEPTFSLLTDSTEKIIIPLIEEDSKTKTPSYGASRRSNMKGTTNDGTYSPDYSLASVDLKSFKNSLVDIIQQNKERWKELAAQGEPDPHKNSDLVNAEEKHAETHS,stimulation of cAMP hydrolytic activity in the presence of calcium and calmodulin,4-5 fold
